Data reported in US8586603B2, “Aminotetraline derivatives” (priority 2009, dated 2013).

Amino acid sequences for entries named in this document (tags omitted).
UniProt P35462, whole entry: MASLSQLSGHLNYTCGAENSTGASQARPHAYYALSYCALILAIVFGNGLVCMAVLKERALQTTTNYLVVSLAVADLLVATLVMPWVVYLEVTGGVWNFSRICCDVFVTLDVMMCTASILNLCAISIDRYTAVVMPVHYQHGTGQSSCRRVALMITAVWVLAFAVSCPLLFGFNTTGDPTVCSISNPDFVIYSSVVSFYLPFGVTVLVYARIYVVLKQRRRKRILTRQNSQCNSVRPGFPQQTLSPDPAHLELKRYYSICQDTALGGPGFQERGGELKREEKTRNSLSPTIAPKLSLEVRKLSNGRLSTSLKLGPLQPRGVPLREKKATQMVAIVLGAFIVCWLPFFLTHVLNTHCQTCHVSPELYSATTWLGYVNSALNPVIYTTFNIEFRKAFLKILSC

Molecular target: T1, human dopamine receptor subtype hD3 (Homo sapiens, UniProt P35462)
T1 construct: expressed in transfected cells; host or cells: CHO
Assay: Receptor binding assay, [3H]spiperone competition, CHO cell membranes
Conditions: means of 2-8 individual experiments each done as triplicate
Procedure: Receptor binding data were determined when performing competition binding assays with membrane preparations of cloned cells (stably transfected Chinese Hamster Ovary cells (CHO)) expressing the human receptors and the following radioligands: [^3H]spiperone at the human dopamine receptor subtypes hD2long, hD2short, D3, and hD4.4. […].
Selectivity ratios were calculated by division of the Ki values of the various compounds at the respective receptors through the Ki values at the 5HT1a receptor.

Molecule CCCN(CCC)C1CCc2cccc(O)c2C1 (stereo not drawn) [R-(+)-8-OH-DPAT, reference compound] has a Ki of 43 nM.
